Literature values as cited in patent publication US20240024386A1, “MICROBIOME MEDIATED INDUCTION OF IMMUNE TOLERANCE AND RESOLUTION OF INFLAMMATION” (INFINANT HEALTH, INC., priority 2020, published 2024).

Test system: SRS-CoV
Details: Vero E6 cells

B1: IFNβ 1a: interferon beta-1a, a form of IFNβ (protein, UniProt P01574 22-187, looked up)
Interferon beta: MSYNLLGFLQRSSNFQCQKLLWQLNGRLEYCLKDRMNFDIPEEIKQLQQFQKEDAALTIYEMLQNIFAIFRQDSSSTGWNETIVENLLANVYHQINHLKTVLEEKLEKEDFTRGKLMSSLHLKRYYGRILHYLKAKEYSHCAWTIVRVEILRNFYFINRLTGYLRN
In the case of B1, the “inhibition of SRS-CoV” value is given as “inhibits”.
